This note sets out measurements from publication PMC7173943.

Targets include HA-CXCR4(D20R)-Rluc3 (UniProt P61073); HA-CXCR4(E26R)-Rluc3 (UniProt P61073); HA-CXCR4-Rluc3 (WT) (UniProt P61073).

Consider “human CXCL12α (residues 22–89), recombinant (from UniProt P48061-2 22-89) (ligand)”, for which the β-arrestin-2 recruitment to HA-CXCR4-Rluc3 (BRET2, HEK293T cells), pEC50 was 6.79 -log10(EC50) with HA-CXCR4(D20R)-Rluc3, 6.68 -log10(EC50) with HA-CXCR4(E26R)-Rluc3 and 7.4 -log10(EC50) with HA-CXCR4-Rluc3 (WT).
